Results reported in patent US7799788B2, “Method of treating chronic myelogenous leukemia cells” (University of South Florida, priority 2006, dated 2010).

Tests used:
BaF3/Bcr-Abl cells = assay: Apoptosis by Annexin-V staining, BaF3/Bcr-Abl cells; type: cell-based, mouse; details: 20 nM dasatinib, 48 hours
unmutated Bcr-Abl = assay: Bcr-Abl auto-phosphorylation (immunoprecipitation/immunoblot), BaF3/Bcr-Abl cells; type: cell-based, mouse; details: 5.0 nM dasatinib, 24 hours
Bcr-AblE255K = assay: Bcr-Abl auto-phosphorylation (immunoprecipitation/immunoblot), BaF3/Bcr-AblE255K cells; type: cell-based, mouse; details: 20 nM dasatinib, 24 hours; compared with 5.0 nM on unmutated Bcr-Abl
Bcr-AblT315I = assay: Bcr-Abl autophosphorylation, BaF3/Bcr-AblT315I cells; type: cell-based, mouse; details: data not shown
BaF3/Bcr-AblT315I cells = details: dasatinib 2.0 μM

## Cc1nc(Nc2ncc(C(=O)Nc3c(C)cccc3Cl)s2)cc(N2CCN(CCO)CC2)n1 [dasatinib, N-(2-chloro-6-methylphenyl)-2-[[6-[4-(2-hydroxyethyl)-1-piperazinyl]-2-methyl-4-pyrimidinyl]amino]-5-thiazolecarboxamide]
BaF3/Bcr-Abl cells
  apoptosis of BaF3/Bcr-Abl cells: more than 70%
Unmutated Bcr-Abl
  auto-phosphorylation of the unmutated Bcr-Abl: markedly inhibited
Bcr-AblE255K
  auto-phosphorylation of Bcr-AblE255K: achieved a similar effect
Bcr-AblT315I
  autophosphorylation of Bcr-Abl in BaF3/Bcr-AblT315I cells: did not appreciably inhibit
BaF3/Bcr-AblT315I cells
  sensitivity of BaF3/Bcr-AblT315I cells to dasatinib-induced apoptosis: resistant
